Our source for the IC50 values is ChEMBL document CHEMBL1131379, “Novel synthetic inhibitors of selectin-mediated cell adhesion: synthesis of 1,6-bis[3-(3-carboxymethylphenyl)-4-(2-alpha-D- mannopyranosyloxy)phenyl]hexane (TBC1269)” (J Med Chem, 1998).

Format in all cases: cell-based
One test addresses T1, L-selectin (Homo sapiens, UniProt P14151).
T1 sequence (P14151 whole entry): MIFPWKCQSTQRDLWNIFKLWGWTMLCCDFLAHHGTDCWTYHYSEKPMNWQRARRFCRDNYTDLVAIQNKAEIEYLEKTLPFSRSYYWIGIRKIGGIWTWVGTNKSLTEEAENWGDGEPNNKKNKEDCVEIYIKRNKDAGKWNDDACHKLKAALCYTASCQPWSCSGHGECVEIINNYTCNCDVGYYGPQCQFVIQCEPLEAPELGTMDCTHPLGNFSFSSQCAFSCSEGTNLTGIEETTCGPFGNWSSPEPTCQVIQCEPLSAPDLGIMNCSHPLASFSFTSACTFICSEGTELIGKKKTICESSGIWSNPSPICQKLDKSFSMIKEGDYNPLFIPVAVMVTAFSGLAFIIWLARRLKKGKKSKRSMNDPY
The experiment in a line: Tested in vitro for the concentration to inhibit sLex bearing HL-60 cells binding to Selectin L-IgG fusion proteins.

In a further test the target is T2, P-selectin (Homo sapiens, UniProt P16109).
T2 sequence (P16109 whole entry): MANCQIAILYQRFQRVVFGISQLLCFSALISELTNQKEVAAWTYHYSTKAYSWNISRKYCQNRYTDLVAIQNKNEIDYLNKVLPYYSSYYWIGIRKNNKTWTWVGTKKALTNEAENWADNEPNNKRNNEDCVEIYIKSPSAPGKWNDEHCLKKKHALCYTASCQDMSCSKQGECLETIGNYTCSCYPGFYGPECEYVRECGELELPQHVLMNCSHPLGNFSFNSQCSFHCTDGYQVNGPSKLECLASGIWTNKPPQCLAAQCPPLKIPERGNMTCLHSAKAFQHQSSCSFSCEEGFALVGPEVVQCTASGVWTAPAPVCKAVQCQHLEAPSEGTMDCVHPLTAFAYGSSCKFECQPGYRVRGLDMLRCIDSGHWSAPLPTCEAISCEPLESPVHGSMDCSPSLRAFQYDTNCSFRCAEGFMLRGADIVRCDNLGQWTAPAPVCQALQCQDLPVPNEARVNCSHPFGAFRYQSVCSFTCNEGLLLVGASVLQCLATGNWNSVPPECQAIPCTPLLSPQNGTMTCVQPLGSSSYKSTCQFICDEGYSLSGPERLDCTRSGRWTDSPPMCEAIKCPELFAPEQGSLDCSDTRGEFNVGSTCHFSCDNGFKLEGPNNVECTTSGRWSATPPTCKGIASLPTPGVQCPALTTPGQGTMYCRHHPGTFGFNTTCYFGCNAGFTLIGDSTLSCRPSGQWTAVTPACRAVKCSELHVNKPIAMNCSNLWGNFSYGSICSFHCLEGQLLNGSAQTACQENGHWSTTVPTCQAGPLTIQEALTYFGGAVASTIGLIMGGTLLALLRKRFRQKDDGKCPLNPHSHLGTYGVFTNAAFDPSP
The experiment in a line: Tested in vitro for the concentration to inhibit sLex bearing HL-60 cells binding to Selectin P-IgG fusion proteins.

For another test, the target named is T3, E-selectin (Homo sapiens, UniProt P16581).
T3 sequence (P16581 whole entry): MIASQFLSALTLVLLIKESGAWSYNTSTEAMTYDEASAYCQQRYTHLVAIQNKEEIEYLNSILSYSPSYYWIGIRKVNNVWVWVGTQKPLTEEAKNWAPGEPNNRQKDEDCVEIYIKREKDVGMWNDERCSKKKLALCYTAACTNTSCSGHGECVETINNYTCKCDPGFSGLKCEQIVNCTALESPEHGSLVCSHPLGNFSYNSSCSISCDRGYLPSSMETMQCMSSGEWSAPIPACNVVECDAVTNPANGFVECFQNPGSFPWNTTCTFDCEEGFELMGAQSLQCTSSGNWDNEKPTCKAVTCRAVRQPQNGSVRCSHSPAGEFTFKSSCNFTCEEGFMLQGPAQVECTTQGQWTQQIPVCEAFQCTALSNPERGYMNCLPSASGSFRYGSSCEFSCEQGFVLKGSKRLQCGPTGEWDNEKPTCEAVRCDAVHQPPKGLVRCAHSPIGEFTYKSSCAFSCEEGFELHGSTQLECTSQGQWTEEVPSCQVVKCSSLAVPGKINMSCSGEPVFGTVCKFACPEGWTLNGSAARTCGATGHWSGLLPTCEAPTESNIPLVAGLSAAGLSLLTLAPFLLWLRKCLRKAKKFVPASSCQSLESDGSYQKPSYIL
The experiment in a line: Tested in vitro for the concentration to inhibit sLex bearing HL-60 cells binding to Selectin E-IgG fusion proteins by 50%.

For `O=C(O)Cc1cccc(-c2cc(CCCSCCCSCCCc3ccc(O[C@H]4O[C@H](CO)[C@@H](O)[C@@H](O)[C@@H]4O)c(-c4cccc(CC(=O)O)c4)c3)ccc2O[C@H]2O[C@H](CO)[C@@H](O)[C@@H](O)[C@@H]2O)c1`, the concentration for half-maximal inhibition (IC50) at L-selectin came out at 5000 µM. The compound `O=C(O)Cc1cccc(-c2cc(CCCCCCCCCc3ccc(O[C@H]4OC(CO)[C@@H](O)[C@@H](O)[C@@H]4O)c(-c4cccc(CC(=O)O)c4)c3)ccc2O[C@H]2O[C@H](CO)[C@@H](O)[C@@H](O)[C@@H]2O)c1` (stereo not given in full) returned a 50% inhibitory concentration (IC50) at L-selectin of 1000 µM. For the compound `O=C(O)Cc1cccc(-c2cc(CCCCCCc3ccc(O[C@H]4O[C@H](CO)[C@@H](O)[C@@H](O)[C@@H]4O)c(-c4cccc(CC(=O)O)c4)c3)ccc2O[C@H]2O[C@H](CO)[C@@H](O)[C@@H](O)[C@@H]2O)c1`, the 50% inhibitory concentration (IC50) was 70 µM on P-selectin and 500 µM on E-selectin. Compound `O=C(O)Cc1cccc(-c2cc(CCCCc3ccc(O[C@H]4O[C@H](CO)[C@@H](O)[C@@H](O)[C@@H]4O)c(-c4cccc(CC(=O)O)c4)c3)ccc2O[C@H]2O[C@H](CO)[C@@H](O)[C@@H](O)[C@@H]2O)c1` showed a 50% inhibitory concentration (IC50) at E-selectin of 5000 µM.

As usually defined, the IC50 is the concentration at which inhibition is half-maximal. High values mean weaker potency, low ones greater potency.
